Measured values published in ChEMBL document CHEMBL1129651, “3-Phenyl-substituted imidazo[1,5-alpha]quinoxalin-4-ones and imidazo[1,5-alpha]quinoxaline ureas that have high affinity at the GABAA/benzodiazepine receptor complex” (J Med Chem, 1996).

By UniProt entry, the sequences of proteins in these tests, tags left out. Where a name states a change or a piece, a line headed by the entry shows the natural chain unless it says otherwise.
UniProt O09028: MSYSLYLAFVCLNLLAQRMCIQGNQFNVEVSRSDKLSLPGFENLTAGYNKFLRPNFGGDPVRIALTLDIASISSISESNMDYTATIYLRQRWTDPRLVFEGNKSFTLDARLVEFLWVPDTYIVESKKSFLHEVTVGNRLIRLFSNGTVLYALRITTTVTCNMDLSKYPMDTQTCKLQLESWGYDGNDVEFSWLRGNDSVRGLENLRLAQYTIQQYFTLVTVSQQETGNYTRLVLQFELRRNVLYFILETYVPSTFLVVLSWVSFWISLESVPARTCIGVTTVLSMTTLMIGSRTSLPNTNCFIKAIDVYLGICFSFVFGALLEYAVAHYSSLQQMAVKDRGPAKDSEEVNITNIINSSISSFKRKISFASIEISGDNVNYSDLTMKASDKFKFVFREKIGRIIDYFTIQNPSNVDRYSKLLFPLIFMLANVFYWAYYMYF
UniProt P15431: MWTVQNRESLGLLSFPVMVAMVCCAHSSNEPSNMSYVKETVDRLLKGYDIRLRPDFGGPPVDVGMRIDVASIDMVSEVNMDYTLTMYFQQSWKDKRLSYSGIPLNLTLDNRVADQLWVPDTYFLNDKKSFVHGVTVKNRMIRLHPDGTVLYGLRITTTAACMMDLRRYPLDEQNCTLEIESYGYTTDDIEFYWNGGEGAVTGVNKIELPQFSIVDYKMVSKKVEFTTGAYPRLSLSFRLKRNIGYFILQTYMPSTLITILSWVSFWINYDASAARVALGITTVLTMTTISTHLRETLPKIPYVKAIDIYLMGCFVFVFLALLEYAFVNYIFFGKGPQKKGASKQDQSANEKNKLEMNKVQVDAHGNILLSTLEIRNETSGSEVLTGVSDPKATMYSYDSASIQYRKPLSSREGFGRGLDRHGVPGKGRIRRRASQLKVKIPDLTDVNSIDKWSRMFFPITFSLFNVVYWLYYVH
UniProt P18506: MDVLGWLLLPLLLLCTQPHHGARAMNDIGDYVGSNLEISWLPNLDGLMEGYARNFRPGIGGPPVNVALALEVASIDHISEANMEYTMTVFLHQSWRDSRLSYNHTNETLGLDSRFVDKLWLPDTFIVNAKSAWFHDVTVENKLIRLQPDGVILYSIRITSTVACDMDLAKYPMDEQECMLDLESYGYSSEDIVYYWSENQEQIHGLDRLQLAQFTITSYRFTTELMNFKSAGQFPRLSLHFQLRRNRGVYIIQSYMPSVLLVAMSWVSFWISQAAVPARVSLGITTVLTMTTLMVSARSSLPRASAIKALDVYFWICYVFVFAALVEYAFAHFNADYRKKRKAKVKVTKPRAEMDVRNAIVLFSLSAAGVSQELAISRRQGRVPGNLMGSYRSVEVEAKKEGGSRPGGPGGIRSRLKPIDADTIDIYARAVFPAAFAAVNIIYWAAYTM
UniProt P18508: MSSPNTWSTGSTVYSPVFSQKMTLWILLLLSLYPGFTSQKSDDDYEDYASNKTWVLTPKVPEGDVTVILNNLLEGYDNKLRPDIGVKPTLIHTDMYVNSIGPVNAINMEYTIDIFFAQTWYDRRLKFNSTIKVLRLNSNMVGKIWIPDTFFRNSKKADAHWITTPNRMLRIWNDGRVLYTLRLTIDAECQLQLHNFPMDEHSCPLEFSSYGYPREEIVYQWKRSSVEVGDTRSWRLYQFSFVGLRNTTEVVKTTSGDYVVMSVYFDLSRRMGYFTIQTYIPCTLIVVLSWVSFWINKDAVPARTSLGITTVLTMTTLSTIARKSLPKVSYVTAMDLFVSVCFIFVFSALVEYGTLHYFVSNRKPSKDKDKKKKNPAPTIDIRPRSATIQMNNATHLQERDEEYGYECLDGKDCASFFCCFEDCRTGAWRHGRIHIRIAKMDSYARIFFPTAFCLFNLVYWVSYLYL
UniProt P20236: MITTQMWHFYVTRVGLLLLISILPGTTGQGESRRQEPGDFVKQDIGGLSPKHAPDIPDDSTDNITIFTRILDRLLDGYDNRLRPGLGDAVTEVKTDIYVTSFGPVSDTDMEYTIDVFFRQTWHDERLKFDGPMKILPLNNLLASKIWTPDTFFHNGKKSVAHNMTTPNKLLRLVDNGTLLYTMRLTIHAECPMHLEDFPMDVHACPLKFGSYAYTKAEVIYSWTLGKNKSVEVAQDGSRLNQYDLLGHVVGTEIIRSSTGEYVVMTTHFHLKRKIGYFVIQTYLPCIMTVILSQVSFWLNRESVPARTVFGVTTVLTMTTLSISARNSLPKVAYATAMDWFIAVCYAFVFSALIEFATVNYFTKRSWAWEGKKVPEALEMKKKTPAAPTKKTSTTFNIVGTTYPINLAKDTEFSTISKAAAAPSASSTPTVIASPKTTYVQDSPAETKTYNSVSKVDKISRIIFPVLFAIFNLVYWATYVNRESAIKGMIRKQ
UniProt P23574: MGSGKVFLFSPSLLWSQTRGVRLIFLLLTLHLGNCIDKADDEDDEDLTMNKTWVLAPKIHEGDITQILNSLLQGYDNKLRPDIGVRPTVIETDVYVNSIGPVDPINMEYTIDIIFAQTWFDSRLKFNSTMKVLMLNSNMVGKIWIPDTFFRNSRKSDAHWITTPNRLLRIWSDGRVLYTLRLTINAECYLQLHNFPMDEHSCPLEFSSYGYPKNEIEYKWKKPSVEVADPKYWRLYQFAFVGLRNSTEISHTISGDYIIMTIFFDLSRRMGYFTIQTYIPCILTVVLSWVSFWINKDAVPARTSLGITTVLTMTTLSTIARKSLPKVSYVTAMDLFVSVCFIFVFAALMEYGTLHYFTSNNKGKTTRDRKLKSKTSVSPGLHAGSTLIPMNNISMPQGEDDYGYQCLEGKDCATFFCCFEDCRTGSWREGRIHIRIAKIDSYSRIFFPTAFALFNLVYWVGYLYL
UniProt P23576: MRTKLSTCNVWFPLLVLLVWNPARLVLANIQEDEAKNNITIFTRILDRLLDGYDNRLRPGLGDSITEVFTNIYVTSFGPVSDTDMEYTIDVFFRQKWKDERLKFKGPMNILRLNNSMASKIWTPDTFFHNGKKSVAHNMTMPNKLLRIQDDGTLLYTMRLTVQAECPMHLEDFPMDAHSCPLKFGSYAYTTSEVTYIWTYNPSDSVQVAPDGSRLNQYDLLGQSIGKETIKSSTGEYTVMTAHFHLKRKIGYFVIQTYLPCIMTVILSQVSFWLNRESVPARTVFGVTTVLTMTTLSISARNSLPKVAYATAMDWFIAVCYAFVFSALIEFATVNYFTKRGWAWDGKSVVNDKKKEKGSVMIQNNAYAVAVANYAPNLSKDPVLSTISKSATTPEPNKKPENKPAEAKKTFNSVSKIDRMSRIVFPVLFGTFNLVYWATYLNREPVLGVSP
UniProt P28471: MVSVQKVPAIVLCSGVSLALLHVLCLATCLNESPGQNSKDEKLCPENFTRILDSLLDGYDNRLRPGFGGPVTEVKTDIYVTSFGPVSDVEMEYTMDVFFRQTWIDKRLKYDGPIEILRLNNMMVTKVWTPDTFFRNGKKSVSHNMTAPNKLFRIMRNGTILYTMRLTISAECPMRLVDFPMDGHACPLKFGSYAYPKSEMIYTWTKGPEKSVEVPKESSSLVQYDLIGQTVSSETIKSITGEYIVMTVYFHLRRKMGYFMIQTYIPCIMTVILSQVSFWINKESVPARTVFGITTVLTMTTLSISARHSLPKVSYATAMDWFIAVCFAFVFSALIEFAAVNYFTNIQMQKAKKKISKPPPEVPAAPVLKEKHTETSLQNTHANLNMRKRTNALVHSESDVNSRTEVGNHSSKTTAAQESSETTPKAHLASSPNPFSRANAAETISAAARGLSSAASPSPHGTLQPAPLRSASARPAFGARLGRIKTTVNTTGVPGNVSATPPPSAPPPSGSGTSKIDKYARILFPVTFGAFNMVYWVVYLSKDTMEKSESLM
UniProt P28473: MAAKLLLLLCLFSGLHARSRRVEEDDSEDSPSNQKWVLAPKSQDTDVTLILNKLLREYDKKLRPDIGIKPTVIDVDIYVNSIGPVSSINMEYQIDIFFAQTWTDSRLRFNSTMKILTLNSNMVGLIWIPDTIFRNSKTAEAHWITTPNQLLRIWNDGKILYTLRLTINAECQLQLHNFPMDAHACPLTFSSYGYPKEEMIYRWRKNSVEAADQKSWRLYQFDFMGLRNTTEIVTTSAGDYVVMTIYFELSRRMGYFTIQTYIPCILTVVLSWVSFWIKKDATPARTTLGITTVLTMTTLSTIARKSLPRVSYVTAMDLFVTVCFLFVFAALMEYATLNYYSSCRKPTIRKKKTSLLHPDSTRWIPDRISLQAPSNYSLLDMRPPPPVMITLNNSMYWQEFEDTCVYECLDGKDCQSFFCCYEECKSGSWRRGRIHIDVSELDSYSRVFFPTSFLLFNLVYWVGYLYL
UniProt P62813: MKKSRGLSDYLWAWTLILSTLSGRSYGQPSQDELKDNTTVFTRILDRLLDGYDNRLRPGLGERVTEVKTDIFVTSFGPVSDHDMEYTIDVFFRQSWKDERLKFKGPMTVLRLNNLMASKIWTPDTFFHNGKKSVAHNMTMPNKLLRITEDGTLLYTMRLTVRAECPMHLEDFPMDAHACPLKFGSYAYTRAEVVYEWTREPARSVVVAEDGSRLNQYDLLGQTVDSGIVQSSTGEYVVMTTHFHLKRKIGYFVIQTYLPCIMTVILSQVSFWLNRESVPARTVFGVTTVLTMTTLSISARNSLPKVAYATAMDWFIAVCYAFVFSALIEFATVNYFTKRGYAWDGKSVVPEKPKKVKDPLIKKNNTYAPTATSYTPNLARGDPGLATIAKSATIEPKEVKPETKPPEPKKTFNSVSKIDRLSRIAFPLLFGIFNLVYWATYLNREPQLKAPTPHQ
UniProt P63079: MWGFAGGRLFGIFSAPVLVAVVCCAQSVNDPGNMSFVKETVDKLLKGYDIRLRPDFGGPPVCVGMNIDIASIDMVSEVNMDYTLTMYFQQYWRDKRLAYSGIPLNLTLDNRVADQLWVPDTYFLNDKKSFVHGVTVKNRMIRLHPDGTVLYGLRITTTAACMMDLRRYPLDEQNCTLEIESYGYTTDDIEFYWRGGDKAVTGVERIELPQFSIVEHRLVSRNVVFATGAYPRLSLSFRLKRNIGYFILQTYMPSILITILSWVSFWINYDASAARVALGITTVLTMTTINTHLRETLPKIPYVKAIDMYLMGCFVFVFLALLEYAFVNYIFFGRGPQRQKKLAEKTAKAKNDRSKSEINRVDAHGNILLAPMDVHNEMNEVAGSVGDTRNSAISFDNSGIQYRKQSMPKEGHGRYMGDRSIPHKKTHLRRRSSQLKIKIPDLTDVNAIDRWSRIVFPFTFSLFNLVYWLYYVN
UniProt P63138: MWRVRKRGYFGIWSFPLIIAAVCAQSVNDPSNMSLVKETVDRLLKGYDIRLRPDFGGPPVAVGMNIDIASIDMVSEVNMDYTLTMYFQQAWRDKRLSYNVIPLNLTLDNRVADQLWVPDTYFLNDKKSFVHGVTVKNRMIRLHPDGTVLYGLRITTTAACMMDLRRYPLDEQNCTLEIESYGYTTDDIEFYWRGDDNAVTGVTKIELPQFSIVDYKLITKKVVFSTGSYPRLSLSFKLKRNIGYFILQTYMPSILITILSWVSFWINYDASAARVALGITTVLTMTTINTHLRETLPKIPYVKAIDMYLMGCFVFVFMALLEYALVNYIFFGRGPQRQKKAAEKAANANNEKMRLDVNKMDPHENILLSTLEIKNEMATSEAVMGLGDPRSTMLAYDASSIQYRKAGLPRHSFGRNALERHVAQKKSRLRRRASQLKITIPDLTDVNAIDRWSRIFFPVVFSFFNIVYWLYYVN
UniProt Q9ES14: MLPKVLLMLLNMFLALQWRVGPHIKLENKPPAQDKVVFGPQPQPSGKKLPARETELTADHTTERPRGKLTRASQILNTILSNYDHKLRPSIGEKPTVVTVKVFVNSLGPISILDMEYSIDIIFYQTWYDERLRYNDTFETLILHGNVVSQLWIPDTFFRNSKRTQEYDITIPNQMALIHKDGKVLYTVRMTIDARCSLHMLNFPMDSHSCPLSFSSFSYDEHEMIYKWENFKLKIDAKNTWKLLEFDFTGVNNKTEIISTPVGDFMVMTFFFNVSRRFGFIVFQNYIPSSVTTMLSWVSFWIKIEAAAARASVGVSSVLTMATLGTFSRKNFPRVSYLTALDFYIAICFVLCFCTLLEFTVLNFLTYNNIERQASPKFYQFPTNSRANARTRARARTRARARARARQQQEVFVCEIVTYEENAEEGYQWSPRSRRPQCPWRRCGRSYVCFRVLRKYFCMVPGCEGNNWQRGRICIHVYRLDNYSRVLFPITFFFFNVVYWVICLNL

Target: GABA-A receptor; anion channel (Rattus norvegicus) (UniProt O09028+P15431+P18506+P18508+P19969+P20236+P23574+P23576+P28471+P28473+P30191+P62813+P63079+P63138+Q91ZM7+Q9ES14)

CC(C)n1c(=O)c2c(-c3noc(C4CC4)n3)ncn2c2ccccc21 [PANADIPLON]
TBPS shift: 0.06
